Measurements reported in patent US20210330611A1, “THERAPY FOR NEUROLOGICAL DISEASES/DISORDERS” (priority 2020, published 2021).
Read-outs that look alike come from different tables or passages of the source.

Tests used:
primary rat microglia [1] = tested on: primary rat microglia
primary rat microglia [2] = tested on: primary rat microglia; remark: listed apart in the source
primary rat microglia [3] = assay: Cell toxicity (dead cells, size <150 μm2) in coated fibrin (cFib) assay; conditions: read-out: Cell Toxicity IC50 (uM) [cFib assay];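 as to Fibrin % cell toxicity: share of dead cells sized under 150 µm2 at 10 µM in fibrin-stimulated microglia HTS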
primary rat microglia [4] = assay: Cell toxicity (dead cells, size <150 μm2) in LPS assay; conditions: read-out: Cell Toxicity IC50 (uM) [LPS assay]

Substance | LPS % cell toxicity (primary rat microglia [1]; rat) | Fibrin % cell toxicity (primary rat microglia [2]; rat) | IC50 (primary rat microglia [3]) | IC50 (primary rat microglia [4]) | LPS % cell toxicity (primary rat microglia [1]) | Fibrin % cell toxicity (primary rat microglia [2])
Hexylene Glycol | 0% | 1% |  |  |  | 
Medroxyprogesterone [reference compound] | 0% | 2% | > 20 µM | 17 µM |  | 
Oxolamine Citrate |  |  |  |  | 0% | 1%
Spiramycin |  |  |  |  | 0% | 1%
